Experimental data: US8715737B2, “Method to make porous materials and their applications” (priority 2010, dated 2014)

Experiments:
[1] = tested on: Colorectal Cancer Model (HT-29); test: Colorectal cancer model (HT-29) in nude mice; assay type: in vivo; details: for Tumor Volume Day 50 after Treatment Started: cetuximab 1 mg/kg i.v. weekly, Y-90-cetuximab 100 μCi i.v. once, porous material 600 μCi locally once; for Day Mice survived after Treatment Started: day by which all mice euthanized: mouse euthanized when tumor volume reached 2 cm3
Protocol: A mouse with a tumor size of about 0.125 cm3 size was randomly assigned to either a control group or a treated group. There were four groups: PBS control, unmodified antibody (cetuximab), Y-90-cetuximab and Y-90-chitosa porous material treated group. Each group was fifteen mice. Each tumor size had been measured every three days since treatments started. When the tumor volume reached 2 cm3, the tumor bearing mouse was euthanized. Unmodified cetuximab was given i.v. at the dose of 1 mg/kg every weekly for whole experiment period. 100 μCi of Y-90 labeled cetuximab was given i.v. once (maximal tolerated dose of radiolabeled antibody) and 600 μCi of Y-90-chitosan porous material was given locally once.

[2] = tested on: Breast Cancer Model (BT-474); test: Breast cancer model (BT-474) in nude mice; assay type: in vivo; details: for Tumor Volume Day 40 after Treatment Started: Trastuzumab 1 mg/kg i.v. weekly, Y-90-Trastuzumab 100 μCi i.v. once, porous material 600 μCi locally once; for Day Mice survived after Treatment Started: day by which all mice euthanized: mouse euthanized when tumor volume reached 2 cm3
Protocol: A mouse with a tumor size of about 0.125 cm3 size was randomly assigned to either a control group or a treated group. There were four groups: PBS control, unmodified antibody (Trastuzumab), Y-90-Trastuzumab and Y-90-dendrimer porous material treated group. Each group was fifteen mice. Each tumor size had been measured every three days since treatments started. When the tumor volume reached 2 cm3, the tumor bearing mouse was euthanized. Unmodified Trastuzumab was given i.v. at the dose of 1 mg/kg every weekly for whole experiment period. A 100 μCi of Y-90 labeled Trastuzumab was given i.v. at once (maximal tolerant dose) and a 600 μCi of Y-90-dendrimer porous material was given locally once.

Substance: cetuximab [Unmodified Cetuximab]
- Tumor Volume Day 50 after Treatment Started [1]: 1.75 ± 0.49 cm^3
- Day Mice survived after Treatment Started: day by which all mice euthanized [1]: by day 69

Substance: Trastuzumab [Unmodified Trastuzumab]
- Tumor Volume Day 40 after Treatment Started [2]: 1.75 ± 0.49 cm^3
- Day Mice survived after Treatment Started: day by which all mice euthanized [2]: by day 47

Substance: Y-90-Trastuzumab: Y-90 labeled Trastuzumab, radiolabeled antibody
- Tumor Volume Day 40 after Treatment Started [2]: 1.70 ± 0.41 cm^3
- Day Mice survived after Treatment Started: day by which all mice euthanized [2]: by day 50

Substance: Y-90- Cetuximab: Y-90 labeled cetuximab, radiolabeled antibody
- Tumor Volume Day 50 after Treatment Started [1]: 1.70 ± 0.41 cm^3
- Day Mice survived after Treatment Started: day by which all mice euthanized [1]: by day 73
